Literature values in US20100168443A1, “Ethoid-Containing Compounds, Methods for Preparing Ethoid-Containing Compounds, and Methods of Use” (UNIVERSITY OF VIRGINIA PATENT FOUNDATION, priority 2006, published 2010).

Protein sequences, listed by entry. Tags and fused reporters are not part of them.
UniProt P25103, whole entry: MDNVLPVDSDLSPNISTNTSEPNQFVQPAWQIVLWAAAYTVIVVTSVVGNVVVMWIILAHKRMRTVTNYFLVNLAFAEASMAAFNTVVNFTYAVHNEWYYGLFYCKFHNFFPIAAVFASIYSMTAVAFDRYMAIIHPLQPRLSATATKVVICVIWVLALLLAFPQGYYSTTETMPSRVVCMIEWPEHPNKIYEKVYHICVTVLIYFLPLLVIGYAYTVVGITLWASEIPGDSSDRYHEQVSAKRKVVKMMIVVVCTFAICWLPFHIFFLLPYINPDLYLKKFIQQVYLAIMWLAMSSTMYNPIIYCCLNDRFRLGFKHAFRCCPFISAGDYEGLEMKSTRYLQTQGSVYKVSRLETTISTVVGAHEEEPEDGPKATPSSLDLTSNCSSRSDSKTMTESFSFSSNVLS

Target: Tachykinin NK1 HUMAN receptor (Homo sapiens, UniProt P25103)
Conditions: radioligand; Human recombinant (CHO cells); tested as the radiolabelled form; cited from earlier work

CC(C)Oc1cccc(CC(=O)N2CCC[C@](CC[N+]34CCC(c5ccccc5)(CC3)CC4)(c3ccc(Cl)c(Cl)c3)C2)c1
Kd: 0.3 nM
